Activation data for 2 compounds are collected here from PubChem BioAssay AID1508602 (The Scripps Research Institute Molecular Screening Center, 2020).

The chains behind the UniProt entries cited, without tags or fusion partners.
UniProt Q8TDV0, whole entry: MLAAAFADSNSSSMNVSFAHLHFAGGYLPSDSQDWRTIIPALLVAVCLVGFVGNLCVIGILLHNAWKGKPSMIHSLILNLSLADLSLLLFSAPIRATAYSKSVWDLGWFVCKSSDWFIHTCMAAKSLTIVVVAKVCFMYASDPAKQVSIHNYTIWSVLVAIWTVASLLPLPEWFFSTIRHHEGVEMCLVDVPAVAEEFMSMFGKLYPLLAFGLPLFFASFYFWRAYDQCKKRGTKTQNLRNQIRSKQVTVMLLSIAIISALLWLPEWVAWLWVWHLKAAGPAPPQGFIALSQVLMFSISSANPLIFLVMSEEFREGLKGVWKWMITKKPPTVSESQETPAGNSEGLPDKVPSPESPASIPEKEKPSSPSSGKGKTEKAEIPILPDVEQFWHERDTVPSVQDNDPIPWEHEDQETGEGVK

This is a selection; strong and weak results do not stand in their true shares. Some tests of the compounds listed are not included; inactive here does not mean inactive elsewhere. Calls of active or inactive are those of the source. Cut-off read from the data, not from the text of the source: active = activation above about 4.9%; inactive = the rest.

For this test, the target named is G-protein coupled receptor 151 (Homo sapiens) (UniProt Q8TDV0). The experiment in a line: activates the human receptor GPR151, primary screen, cell-based, PathHunter beta-arrestin, luminescence (AID 1508602).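 Note: 0% = median of compound wells and 100% = cells with positive control.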 Particulars: PathHunter beta-arrestin GPR151 cells, at 11.2 µM, active compounds read high.
For the compound `CC(=O)N(Cc1cccnc1)C1CCN(CCc2cccs2)CC1`, the activation is inactive: -2.31%. Turning to `O=C(c1ccco1)N(Cc1ccco1)C1CCN(CCc2cccs2)CC1`, the activation was inactive: 0.325%.
